The numbers were not newly measured in PMC3758776, which cites them from elsewhere.

Chains of the proteins cited; added tags and fusions are not shown. Residues count along the entry.
UniProt P19235, 25-508: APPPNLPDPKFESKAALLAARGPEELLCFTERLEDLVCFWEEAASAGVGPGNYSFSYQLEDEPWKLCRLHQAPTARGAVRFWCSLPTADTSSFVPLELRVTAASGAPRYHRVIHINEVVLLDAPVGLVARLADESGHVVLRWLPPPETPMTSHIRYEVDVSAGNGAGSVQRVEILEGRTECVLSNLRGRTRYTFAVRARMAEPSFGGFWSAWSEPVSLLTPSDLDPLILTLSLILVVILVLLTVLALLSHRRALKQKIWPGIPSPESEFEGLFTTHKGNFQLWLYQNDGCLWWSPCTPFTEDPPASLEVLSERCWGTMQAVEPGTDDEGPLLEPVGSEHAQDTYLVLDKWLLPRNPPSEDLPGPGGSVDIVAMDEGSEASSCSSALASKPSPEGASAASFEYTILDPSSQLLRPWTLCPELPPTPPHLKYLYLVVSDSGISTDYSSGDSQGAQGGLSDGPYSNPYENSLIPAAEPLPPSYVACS

The target in this data set is erythropoietin receptor (medullary collecting duct cells) (Homo sapiens) (UniProt P19235).

Turning to Erythropoietin (from UniProt P01588), the Kd – broadly, the equilibrium constant for the complex coming apart – was 1.3 nM.
